Amino acid sequences for entries named in this document (tags omitted).
UniProt Q09472, whole entry, looked up: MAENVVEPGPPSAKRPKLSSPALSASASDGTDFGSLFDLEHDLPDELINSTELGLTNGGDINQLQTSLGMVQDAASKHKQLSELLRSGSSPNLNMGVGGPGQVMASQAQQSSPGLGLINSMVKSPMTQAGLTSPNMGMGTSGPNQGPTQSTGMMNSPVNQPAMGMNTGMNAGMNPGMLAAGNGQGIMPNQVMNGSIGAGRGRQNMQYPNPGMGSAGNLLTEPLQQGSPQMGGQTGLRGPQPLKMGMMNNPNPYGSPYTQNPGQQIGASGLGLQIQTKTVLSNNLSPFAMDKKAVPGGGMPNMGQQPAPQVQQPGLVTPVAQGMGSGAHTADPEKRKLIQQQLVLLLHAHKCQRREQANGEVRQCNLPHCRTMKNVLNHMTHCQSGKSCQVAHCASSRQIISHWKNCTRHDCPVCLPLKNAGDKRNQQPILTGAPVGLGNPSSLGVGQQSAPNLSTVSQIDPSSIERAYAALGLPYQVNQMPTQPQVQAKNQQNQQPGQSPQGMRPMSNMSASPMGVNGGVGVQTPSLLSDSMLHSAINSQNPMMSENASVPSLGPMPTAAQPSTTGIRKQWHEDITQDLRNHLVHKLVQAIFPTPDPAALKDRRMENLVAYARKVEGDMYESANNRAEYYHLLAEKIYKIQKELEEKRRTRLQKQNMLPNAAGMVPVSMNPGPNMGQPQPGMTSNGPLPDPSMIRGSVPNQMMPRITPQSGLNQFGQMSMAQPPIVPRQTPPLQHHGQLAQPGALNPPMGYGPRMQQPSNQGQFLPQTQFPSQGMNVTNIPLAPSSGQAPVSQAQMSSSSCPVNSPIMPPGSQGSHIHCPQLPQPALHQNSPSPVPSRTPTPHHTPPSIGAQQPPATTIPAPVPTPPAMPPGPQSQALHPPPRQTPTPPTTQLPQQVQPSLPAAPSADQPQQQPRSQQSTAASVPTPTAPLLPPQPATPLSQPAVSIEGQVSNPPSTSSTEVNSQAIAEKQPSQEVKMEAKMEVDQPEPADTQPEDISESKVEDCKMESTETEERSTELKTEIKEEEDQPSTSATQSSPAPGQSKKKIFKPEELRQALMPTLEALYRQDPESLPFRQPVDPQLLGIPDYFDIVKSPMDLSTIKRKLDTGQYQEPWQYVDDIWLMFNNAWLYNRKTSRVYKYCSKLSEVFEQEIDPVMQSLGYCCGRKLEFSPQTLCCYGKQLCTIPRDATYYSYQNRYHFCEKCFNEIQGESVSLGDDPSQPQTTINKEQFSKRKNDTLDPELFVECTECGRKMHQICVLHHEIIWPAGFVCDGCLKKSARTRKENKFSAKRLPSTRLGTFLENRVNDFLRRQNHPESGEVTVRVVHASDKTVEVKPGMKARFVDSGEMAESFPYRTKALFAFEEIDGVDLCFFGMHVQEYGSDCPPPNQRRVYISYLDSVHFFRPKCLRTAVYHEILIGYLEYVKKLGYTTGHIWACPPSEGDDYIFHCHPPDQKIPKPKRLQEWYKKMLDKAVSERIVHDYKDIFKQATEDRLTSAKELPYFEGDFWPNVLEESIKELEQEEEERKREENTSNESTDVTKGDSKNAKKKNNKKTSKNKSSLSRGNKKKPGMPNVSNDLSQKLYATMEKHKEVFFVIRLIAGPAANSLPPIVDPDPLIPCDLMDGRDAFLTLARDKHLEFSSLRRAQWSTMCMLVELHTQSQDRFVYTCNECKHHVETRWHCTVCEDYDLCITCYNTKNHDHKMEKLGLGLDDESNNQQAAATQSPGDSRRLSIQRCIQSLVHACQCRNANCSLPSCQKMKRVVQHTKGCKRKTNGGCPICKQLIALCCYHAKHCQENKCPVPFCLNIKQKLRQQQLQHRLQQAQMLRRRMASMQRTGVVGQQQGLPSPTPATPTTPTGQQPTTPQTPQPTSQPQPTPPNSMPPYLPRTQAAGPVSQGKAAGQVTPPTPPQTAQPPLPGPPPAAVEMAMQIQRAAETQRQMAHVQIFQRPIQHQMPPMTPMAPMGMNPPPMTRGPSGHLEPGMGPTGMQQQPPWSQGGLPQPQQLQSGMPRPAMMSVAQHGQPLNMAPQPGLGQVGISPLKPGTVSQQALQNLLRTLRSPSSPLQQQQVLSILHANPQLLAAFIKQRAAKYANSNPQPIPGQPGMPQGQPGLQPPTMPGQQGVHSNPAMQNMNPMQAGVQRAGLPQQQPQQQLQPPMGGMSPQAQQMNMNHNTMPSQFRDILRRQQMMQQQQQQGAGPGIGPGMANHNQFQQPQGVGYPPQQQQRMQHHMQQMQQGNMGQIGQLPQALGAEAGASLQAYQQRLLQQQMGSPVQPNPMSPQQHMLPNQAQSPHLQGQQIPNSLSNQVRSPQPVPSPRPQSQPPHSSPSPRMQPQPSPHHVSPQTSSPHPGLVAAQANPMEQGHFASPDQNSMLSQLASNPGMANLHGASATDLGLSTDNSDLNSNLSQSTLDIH
UniProt Q92793, whole entry, looked up: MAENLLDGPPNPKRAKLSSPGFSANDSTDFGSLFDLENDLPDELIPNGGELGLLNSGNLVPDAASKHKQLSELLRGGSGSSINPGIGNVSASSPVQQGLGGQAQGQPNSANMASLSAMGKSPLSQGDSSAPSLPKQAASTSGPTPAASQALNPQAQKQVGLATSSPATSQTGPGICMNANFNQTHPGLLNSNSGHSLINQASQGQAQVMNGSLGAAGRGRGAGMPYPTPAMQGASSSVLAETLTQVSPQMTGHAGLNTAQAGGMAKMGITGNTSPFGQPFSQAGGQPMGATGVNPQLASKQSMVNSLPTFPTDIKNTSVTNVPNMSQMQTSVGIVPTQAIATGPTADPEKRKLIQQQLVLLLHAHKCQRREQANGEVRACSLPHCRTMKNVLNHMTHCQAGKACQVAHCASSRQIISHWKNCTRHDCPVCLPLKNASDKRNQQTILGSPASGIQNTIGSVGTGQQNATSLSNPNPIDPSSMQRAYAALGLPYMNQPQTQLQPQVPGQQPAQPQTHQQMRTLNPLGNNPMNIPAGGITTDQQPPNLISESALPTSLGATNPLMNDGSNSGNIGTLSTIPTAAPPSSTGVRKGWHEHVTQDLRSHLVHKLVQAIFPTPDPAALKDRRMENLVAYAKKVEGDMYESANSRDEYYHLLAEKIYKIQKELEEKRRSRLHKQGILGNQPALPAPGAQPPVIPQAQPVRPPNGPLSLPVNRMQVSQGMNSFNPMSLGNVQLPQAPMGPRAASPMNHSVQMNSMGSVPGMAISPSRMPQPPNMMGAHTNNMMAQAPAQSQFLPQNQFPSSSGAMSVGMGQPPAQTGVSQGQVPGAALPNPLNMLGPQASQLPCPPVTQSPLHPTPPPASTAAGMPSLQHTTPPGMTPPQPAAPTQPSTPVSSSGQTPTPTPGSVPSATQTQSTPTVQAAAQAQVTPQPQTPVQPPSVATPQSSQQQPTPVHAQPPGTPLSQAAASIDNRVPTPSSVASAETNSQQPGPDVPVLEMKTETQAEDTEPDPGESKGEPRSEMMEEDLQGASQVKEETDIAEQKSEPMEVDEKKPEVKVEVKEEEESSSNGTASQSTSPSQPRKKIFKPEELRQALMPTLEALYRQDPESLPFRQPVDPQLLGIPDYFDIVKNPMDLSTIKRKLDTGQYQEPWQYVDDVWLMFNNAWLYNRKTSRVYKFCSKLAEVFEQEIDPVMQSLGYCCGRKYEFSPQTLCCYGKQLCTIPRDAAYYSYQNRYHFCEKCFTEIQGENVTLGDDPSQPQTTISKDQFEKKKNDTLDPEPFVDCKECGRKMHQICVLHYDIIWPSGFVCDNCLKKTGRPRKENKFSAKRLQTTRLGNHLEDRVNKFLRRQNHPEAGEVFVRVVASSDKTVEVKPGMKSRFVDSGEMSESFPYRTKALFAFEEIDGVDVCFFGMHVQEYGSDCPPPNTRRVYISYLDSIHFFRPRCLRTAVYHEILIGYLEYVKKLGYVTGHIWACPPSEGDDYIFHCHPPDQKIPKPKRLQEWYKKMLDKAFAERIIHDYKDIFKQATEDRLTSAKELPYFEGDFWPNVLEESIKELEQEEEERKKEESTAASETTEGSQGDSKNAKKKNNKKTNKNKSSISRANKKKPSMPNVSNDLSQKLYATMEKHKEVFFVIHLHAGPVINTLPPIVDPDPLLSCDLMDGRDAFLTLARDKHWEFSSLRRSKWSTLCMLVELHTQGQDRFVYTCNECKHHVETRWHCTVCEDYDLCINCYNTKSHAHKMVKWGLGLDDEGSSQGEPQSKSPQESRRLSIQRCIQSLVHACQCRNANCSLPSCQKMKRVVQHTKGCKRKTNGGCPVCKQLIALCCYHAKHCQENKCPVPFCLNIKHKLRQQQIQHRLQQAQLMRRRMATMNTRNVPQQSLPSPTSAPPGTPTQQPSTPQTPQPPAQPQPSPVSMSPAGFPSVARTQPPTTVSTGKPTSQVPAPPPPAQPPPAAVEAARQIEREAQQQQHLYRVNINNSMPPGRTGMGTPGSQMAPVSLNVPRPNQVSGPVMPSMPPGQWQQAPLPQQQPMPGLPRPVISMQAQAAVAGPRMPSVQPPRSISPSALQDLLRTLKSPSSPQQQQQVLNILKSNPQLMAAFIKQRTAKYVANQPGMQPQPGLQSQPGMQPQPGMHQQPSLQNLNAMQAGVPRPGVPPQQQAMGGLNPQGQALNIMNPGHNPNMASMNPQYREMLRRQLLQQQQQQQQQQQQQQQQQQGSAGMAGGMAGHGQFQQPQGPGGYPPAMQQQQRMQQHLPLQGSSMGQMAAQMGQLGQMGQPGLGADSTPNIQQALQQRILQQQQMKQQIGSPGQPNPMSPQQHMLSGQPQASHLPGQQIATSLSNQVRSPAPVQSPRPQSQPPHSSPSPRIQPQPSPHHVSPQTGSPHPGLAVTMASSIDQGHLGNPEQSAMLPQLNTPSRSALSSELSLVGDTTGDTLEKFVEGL

According to ChEMBL document CHEMBL4145544, “Discovery and optimization of 1-(1H-indol-1-yl)ethanone derivatives as CBP/EP300 bromodomain inhibitors for the treatment of castration-resistant prostate cancer” (Eur J Med Chem, 2018):

Columns and labels:
Assay type in all cases: cell-based
[1] = target: T1, CREB-binding protein/Histone acetyltransferase p300 (Homo sapiens) (UniProt Q09472+Q92793); assay: Inhibition of EP300/CBP in human 22Rv1 cells assessed as downregulation of full length AR protein expression by measuring FL-AR protein level at 2 uM after 48 hrs by Western blot analysis relative to control
[2] = target: T1, CREB-binding protein/Histone acetyltransferase p300 (Homo sapiens); assay: Inhibition of EP300/CBP in human 22Rv1 cells assessed as downregulation of AR-V7 protein expression by measuring AR-V7 protein level at 8 uM after 48 hrs by Western blot analysis relative to control
[3] = target: T1, CREB-binding protein/Histone acetyltransferase p300 (Homo sapiens); assay: Inhibition of EP300/CBP in human 22Rv1 cells assessed as downregulation of AR-V7 protein expression by measuring AR-V7 protein level at 16 uM after 48 hrs by Western blot analysis relative to control
[4] = target: T1, CREB-binding protein/Histone acetyltransferase p300 (Homo sapiens); assay: Inhibition of EP300/CBP in human 22Rv1 cells assessed as downregulation of AR-V7 protein expression by measuring AR-V7 protein level at 1 uM after 48 hrs by Western blot analysis relative to control
[5] = target: T1, CREB-binding protein/Histone acetyltransferase p300 (Homo sapiens); assay: Inhibition of EP300/CBP in human 22Rv1 cells assessed as downregulation of AR-V7 protein expression by measuring AR-V7 protein level at 2 uM after 48 hrs by Western blot analysis relative to control
[6] = target: T1, CREB-binding protein/Histone acetyltransferase p300 (Homo sapiens); assay: Inhibition of EP300/CBP in human 22Rv1 cells assessed as downregulation of full length AR protein expression by measuring FL-AR protein level at 16 uM after 48 hrs by Western blot analysis relative to control
[7] = target: T1, CREB-binding protein/Histone acetyltransferase p300 (Homo sapiens); assay: Inhibition of EP300/CBP in human 22Rv1 cells assessed as downregulation of AR-V7 protein expression by measuring AR-V7 protein level at 4 uM after 48 hrs by Western blot analysis relative to control
[8] = target: T1, CREB-binding protein/Histone acetyltransferase p300 (Homo sapiens); assay: Inhibition of EP300/CBP in human 22Rv1 cells assessed as downregulation of full length AR protein expression by measuring FL-AR protein level at 8 uM after 48 hrs by Western blot analysis relative to control
[9] = target: T1, CREB-binding protein/Histone acetyltransferase p300 (Homo sapiens); assay: Inhibition of EP300/CBP in human 22Rv1 cells assessed as downregulation of full length AR protein expression by measuring FL-AR protein level at 4 uM after 48 hrs by Western blot analysis relative to control
[10] = target: T1, CREB-binding protein/Histone acetyltransferase p300 (Homo sapiens); assay: Inhibition of EP300/CBP in human 22Rv1 cells assessed as downregulation of full length AR protein expression by measuring FL-AR protein level at 1 uM after 48 hrs by Western blot analysis relative to control

Compound: COc1ccc2c(c1)c(C(=O)Nc1cc(C(=O)OC(C)(C)C)cc(-c3cnn(C)c3)c1F)cn2C(C)=O
- fold change (FC) [1]: 0.81
- fold change (FC) [2]: 0.27
- fold change (FC) [3]: 0
- fold change (FC) [4]: 0.84
- fold change (FC) [5]: 0.81
- fold change (FC) [6]: 0.3
- fold change (FC) [7]: 0.76
- fold change (FC) [8]: 0.78
- fold change (FC) [9]: 0.88
- fold change (FC) [10]: 1.04
